# According to ChEMBL document CHEMBL1131007, “5-Fluoro-2-methyl-N-[4-(5H-pyrrolo[2,1-c]-[1, 4]benzodiazepin-10(11H)-ylcarbonyl)-3-chlorophenyl]benzamide (VPA-985): an orally active arginine vasopressin antagonist with selectivity for V2 receptors” (J Med Chem, 1998):
# Species on record: Homo sapiens
# Experiment: Relative affinity for human vasopressin receptors V1a and V2
# Method in brief: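 Ratio from IC50 values: V1a by displacement of 3H-AVP or 3H-[d(CH2)5 1Tyr(Me)2,Arg8]-AVP from human platelet membranes; V2 by displacement of 3H-AVP from membranes of murine fibroblast LV2 cells expressing human V2 receptors.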
smiles,measurement,value
Cc1ccc(F)cc1C(=O)Nc1ccc(C(=O)N2Cc3cccn3Cc3ccccc32)cc1,Selectivity,13
